Compounds with a hit are over-represented: about 2.3% of the library has one in this group of screens.
GRP78 ERSR act: inducers of ER stress response in human glioma cells. AID 602332. Potency, µM, for inactives: at the highest dose activation, usual class: activators. hit rate 0.02% among 420,000. U87-MG GRP78 promoter luciferase reporter, 16 h; also: potency is read from the fitted curve at half-maximal effect; series mostly up to about 76 µM; % of control where 0% means no effect; nearly all actives have a fitted effect of over 35% in size
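Stably transfected U87-MG glioma cells carrying a GRP78-based luciferase sensor; 16 h compound incubation. Luminescence end-point read 10 min after Bright-Glo addition at room temperature.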
miR-21 FLuc: miR-21 reporter, rising signal | HeLa miR-21 FLuc reporter, luciferase, 48 h | Potency, µM (top dose mostly 38.3 µM), inactives show at the top dose reporter change, positive = more light | 340,000 tested, under 10 active | AID 2288; active = well fitted rising curve with a large enough effect; inconclusive = small, poorly fitted or top-dose-only effect; inactive = no such curve, though single readings can be large or run the other way;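 further: % of control where 0% means no effect; miR-21 action dims this reporter so a rising signal means less miR-21 action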
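Luminescence from a firefly luciferase reporter carrying a miR-21 binding site downstream, stably expressed under a CMV promoter in HeLa cells that make miR-21 endogenously, reports miRNA modulation after 48 h compound exposure up to approximately 40uM final.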
Nrf2 inh: inhibitors of Nrf2 signaling; A549 ARE-Fluc reporter, luciferase luminescence, 18-24 h; Potency, µM (titrated, usually from 46 µM), inactives show top-dose activity change, negative = inhibition, actives largely listed as inhibitors; hit rate 2.1% among 360,000; also: potency is read from the fitted curve at half-maximal effect; % is scaled to controls: 0 for no effect and ±100 for the full control effect; nearly all actives have a fitted effect of over 60% in size
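Nrf2 function is reported as luminescence of an ARE-controlled luciferase in A549 cells. Compounds were tested at several concentrations, and a CellTiter-Fluor read on the same wells flagged cytotoxicity.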
Mito fusion yeast: blocks mitochondrial division or promotes mitochondrial fusion | Potency, µM (titrated, usually from 46.1 µM), inactives show top-dose growth rescue (activation), most hits filed as activators | AID 485298 | S. cerevisiae fusion-defective mutant growth rescue, CellTiterGlo 48 h | hit rate 0.23% among 320,000; also: potency is read from the fitted curve at half-maximal effect; % of control where 0% means no effect; nearly all actives have a fitted effect of over 45% in size
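Read-out: ATP-based luminescence (CellTiterGlo, 10 min ambient) reporting growth of fusion-defective ts yeast after 48 hours at 37C on glycerol/ethanol YPEG medium in the presence of compound.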
Nrf2 activator: activators of Nrf2 (ARE) signaling | AREc32 ARE-luciferase reporter (MCF7-derived line), luminescence, 24 h | Potency, µM (top dose mostly 46.1 µM), without a hit: at the highest dose activation, usual class: activators | hit rate 0.31% among 410,000 | AID 624171; also: potency is read from the fitted curve at half-maximal effect; % of control where 0% means no effect; nearly all actives have a fitted effect of over 65% in size
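Luminescent ARE reporter assay in AREc32_Fluc cells: overnight plating at 37 deg C, 24 hr compound incubation, Steady-Glo added, 30 min RT before reading.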
A549 viability: kills or reduces viability of A549 cells in Nrf2 counter-screen; A549 ARE-Fluc cells, CellTiter-Fluor viability, 18-24 h; Potency, µM (series often up to 46 µM), without a hit: at the highest dose activity change, negative = cytotoxicity, actives largely listed as inhibitors; hit rate 0.16% among 390,000; AID 504648; also: potency is read from the fitted curve at half-maximal effect; % is scaled to controls: 0 for no effect and ±100 for the full control effect
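Cytotoxicity counterscreen: CellTiter-Fluor fluorescence was measured in A549 ARE_Fluc cells after 18-24 h of compound exposure in a concentration series. The subsequent BugLite luminescent read reports ARE-luciferase activity.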
* hit, by the source's call; ? = inconclusive; nt = no result given; ! = not active in a repeat. Calls follow the shape of the dose curve; as a rule, active = well fitted curve in the direction sought with a large enough effect; inconclusive = small, poorly fitted or top-dose-only effect, or another doubt; inactive = no such curve, though single readings can be large; an effect the other way counts as inactive or inconclusive.

Values run as follows: GRP78 ERSR act	miR-21 FLuc	Nrf2 inh	Mito fusion yeast	Nrf2 activator	A549 viability
> S=C(S)N1CCNCC1
 : -2%	nt	nt	nt	nt	nt
> CC(C)(C)C(O)C(Oc1ccc(Cl)cc1)n1cncn1 (stereo not given)
 : -2%	-4%	?	35µM*	3%	7%
> COc1ccc(CCNCc2ccsc2)cc1OC
 : -5%	1%	3%	-2%	0%	-3%
> O=S(=O)(c1ccc(F)c(F)c1F)N1CCN(c2ncnc3sccc23)CC1
 : 0%	nt	13µM*	nt	5%	0%
> O=Nc1c(O)c2ccccc2c2ccccc12
 : -2%	nt	23µM*	nt	-3%	?
> CC1(C)S[C@@H]2[C@H](N)C(=O)N2C1C(=O)O (stereo not given in full)
 : -1%	nt	nt	nt	nt	nt
> CCCCC(C#N)(Cn1cncn1)c1ccc(Cl)cc1 (stereo not given)
 : -6%	nt	nt	nt	nt	nt
> CC1=CC2/C=C(\C)CCC(O)C(O)/C=C/C(=O)C23C(=O)NC(CC(C)C)C3C1C (stereo not given)
 : -11%	?	15µM*	-6%	?	16µM*
> CCc1ccc(-n2c(SC(CC)C(=O)N(CC)CC)nc3n[nH]c(C)c3c2=N)cc1 (stereo not given)
 : ?	23%	nt	nt	0%	-10%
> COC1=CC2C3Cc4ccc(OC)c(O)c4C2(CCN3C)CC1=O (stereo not given)
 : -5%	nt	-3%	1%	-1%	2%
> O=C(c1cccc(C(F)(F)F)c1)C1CCCN(Cc2ccccc2O)C1 (stereo not given)
 : -3%	-1%	-4%	8%	0%	1%
> O=C(Nc1ccc2nc3n(c(=O)c2c1)CCCCC3)c1cccc(C(F)(F)F)c1
 : -2%	-5%	12µM*	nt	5%	-17%
> Cc1nn(CC(C)C)c(Cl)c1C(=O)NC1CCCCC1
 : 0%	nt	?	8%	0%	4%
> CCOC(=O)C1CCCN(c2ccc([N+](=O)[O-])c3nonc23)C1 (stereo not given)
 : 0%	3%	-27%	-1%	5%	18µM*
> CC1CCCN(c2ccc(C(=O)N3CCC4(CC3)OCCO4)cc2[N+](=O)[O-])C1 (stereo not given)
 : -2%	1%	3%	1%	0%	-7%
> CN(C)c1ccc([P+](=O)c2ccc(N(C)C)cc2)cc1
 : 0%	0%	?	-1%	-1%	-4%
> CN(C)c1ccc([N+](=O)[O-])c([N+](=O)[O-])c1
 : -2%	nt	-20%	nt	11µM*	?
> Cc1c(C(=O)NCCC2=CCCCC2)oc2ccc(S(=O)(=O)N3CCC4(CC3)OCCO4)cc12
 : -3%	20%	7.3µM*	19%	2%	-16%
> Cc1c(Cl)cccc1NC(=O)c1oc2ccc(S(=O)(=O)N3CCC4(CC3)OCCO4)cc2c1C
 : -3%	?	nt	nt	0%	-10%
> [O]=[Cr](=[O])([OH])[O][Cr](=[O])(=[O])[OH]
 : -5%	nt	nt	nt	nt	nt
> COc1cccc(C(=O)N/N=C(/c2ccccc2)c2ccccn2)c1
 : -3%	16%	10µM*	-6%	0%	?
> O=C(CCl)NN=C(c1ccccc1)c1ccccc1
 : -2%	-2%	?	2%	3%	3%
> CC1(C)Cc2c(c(N3CCOCC3)nc3sc4c(NCc5ccccc5)nnnc4c23)CS1
 : -4%	-9%	2.6µM*	4%	-1%	-2%
> CCC(COC(=O)c1cc(OC)c(OC)c(OC)c1)(c1ccccc1)N(C)C (stereo not given)
 : -2%	-9%	21µM*!	-1%	8%	0%
> Cc1cc[n+](Cc2ccccc2)cc1
 : -5%	nt	18µM*	-7%	0%	-1%
> c1ccc(C[n+]2ccccc2)cc1
 : -1%	nt	?	3%	3%	1%
> COc1ccc2c(c1)c(CC(=O)Nc1c(C)cccc1C)c(C)n2C(=O)c1ccc(Cl)cc1
 : nt	-1%	23µM*	nt	1%	-20%
> O=C(C(=O)N1CCOCC1)c1cn(Cc2ccccc2Cl)c2ccccc12
 : -4%	-2%	0%	9%	1%	2%

Three compounds from above with just Mito fusion yeast, Nrf2 activator and GRP78 ERSR act.
structure	Mito fusion yeast	Nrf2 activator	GRP78 ERSR act
O=C(C(=O)N1CCOCC1)c1cn(Cc2ccccc2Cl)c2ccccc12	9%	1%	-4%
CCC(COC(=O)c1cc(OC)c(OC)c(OC)c1)(c1ccccc1)N(C)C (stereo not given)	-1%	8%	-2%
CC1(C)Cc2c(c(N3CCOCC3)nc3sc4c(NCc5ccccc5)nnnc4c23)CS1	4%	-1%	-4%

Not a retest: entries from further up.
Values run as follows: GRP78 ERSR act	miR-21 FLuc	Nrf2 inh	Mito fusion yeast	Nrf2 activator	A549 viability
> S=C(S)N1CCNCC1
 : -2%	nt	nt	nt	nt	nt
> CC(C)(C)C(O)C(Oc1ccc(Cl)cc1)n1cncn1 (stereo not given)
 : -2%	-4%	?	35µM*	3%	7%
